Measured values as given in patent US20250304643A1, “PEPTIDE DUAL AGONISTS OF GIPR AND GLP2R” (BAINAN BIOTECH APS, priority 2021, published 2025).

Sequences of proteins named here, by UniProt entry; tags and fusion partners are left off. Residues count along the entry.
UniProt P43220, 24-463: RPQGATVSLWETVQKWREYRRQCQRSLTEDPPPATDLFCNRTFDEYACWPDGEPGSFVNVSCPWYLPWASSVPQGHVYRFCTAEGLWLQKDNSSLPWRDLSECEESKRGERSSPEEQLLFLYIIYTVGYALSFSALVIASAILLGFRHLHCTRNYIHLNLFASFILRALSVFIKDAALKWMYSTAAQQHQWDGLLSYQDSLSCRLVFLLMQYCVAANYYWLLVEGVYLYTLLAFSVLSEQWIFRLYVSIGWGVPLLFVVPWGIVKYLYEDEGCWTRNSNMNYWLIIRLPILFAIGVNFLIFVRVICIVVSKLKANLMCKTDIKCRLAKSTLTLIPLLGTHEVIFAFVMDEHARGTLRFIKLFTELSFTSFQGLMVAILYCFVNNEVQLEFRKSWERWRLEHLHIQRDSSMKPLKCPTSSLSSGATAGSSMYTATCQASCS

Legend:
human GLP-2R = target: T1, human GLP-2R (Homo sapiens, UniProt O95838); experiment: HitHunter cAMP assay in transiently transfected COS-7 cells, human GLP-2R; assay type: cell-based; conditions: cAMP, COS-7 cells expressing human GLP-2R; Table 2;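 also: cells kept 30 min at 37 °C in buffer with 1 mM IBMX, then given ligand for another 30 min at 37 °C before cAMP readout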
T1 construct: host or cells: COS-7
T1 sequence (O95838 1-553): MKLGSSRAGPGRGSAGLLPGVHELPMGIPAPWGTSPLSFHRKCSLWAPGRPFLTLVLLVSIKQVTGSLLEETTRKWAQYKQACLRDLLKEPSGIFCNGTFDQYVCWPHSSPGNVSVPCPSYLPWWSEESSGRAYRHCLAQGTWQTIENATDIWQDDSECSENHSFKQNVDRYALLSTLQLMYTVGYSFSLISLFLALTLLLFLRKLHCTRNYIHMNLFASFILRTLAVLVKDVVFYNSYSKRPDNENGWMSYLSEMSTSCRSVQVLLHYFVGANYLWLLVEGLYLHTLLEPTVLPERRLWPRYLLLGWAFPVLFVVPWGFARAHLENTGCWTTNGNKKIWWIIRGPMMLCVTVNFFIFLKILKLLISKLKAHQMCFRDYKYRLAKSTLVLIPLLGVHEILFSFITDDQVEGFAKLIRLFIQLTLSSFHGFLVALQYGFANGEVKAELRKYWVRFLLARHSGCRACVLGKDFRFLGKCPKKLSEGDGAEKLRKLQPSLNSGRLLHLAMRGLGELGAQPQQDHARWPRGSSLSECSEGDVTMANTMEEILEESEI

human GLP-1R = target: T2, human GLP-1R (Homo sapiens, UniProt P43220); experiment: HitHunter cAMP assay in transiently transfected COS-7 cells, human GLP-1R; assay type: cell-based; conditions: cAMP, COS-7 cells expressing human GLP-1R; Table 3
T2 construct: host or cells: COS-7
Description: (§1) The next day the assay was initiated by washing with HEPES buffered saline (HBS) and followed by an incubation step with assay buffer (HBS added 1 mM isobutyl-1-methylxanthine (IBMX)) for 30 min at 37° C. The ligands were then added and incubated for an additional 30 min at 37° C. After ligand incubation, the HitHunter® CAMP assay (Eurofins DiscoverX, Fremont, […] USA) was carried out according to the manufacturer's instructions. Luminescence was measured by PerkinElmer™ EnVision 2014 Multilabel Reader (PerkinElmer, Waltham, MA). The potencies (EC50 values) were determined by nonlinear regression using GraphPad Prism 9 (San Diego, California, USA). Sigmoid curves were fitted logistically. The efficacies (Emax values) were determined by normalization to the highest concentration applied of the endogenous ligand for each receptor.

human SNAP-GIPR = target: T3, human SNAP-GIPR (Homo sapiens, UniProt P48546); assay type: cell-based; conditions: GIPR internalization, HEK293A SNAP-GIPR; NA = no activity
T3 construct: host or cells: HEK293A
T3 sequence (P48546 22-466): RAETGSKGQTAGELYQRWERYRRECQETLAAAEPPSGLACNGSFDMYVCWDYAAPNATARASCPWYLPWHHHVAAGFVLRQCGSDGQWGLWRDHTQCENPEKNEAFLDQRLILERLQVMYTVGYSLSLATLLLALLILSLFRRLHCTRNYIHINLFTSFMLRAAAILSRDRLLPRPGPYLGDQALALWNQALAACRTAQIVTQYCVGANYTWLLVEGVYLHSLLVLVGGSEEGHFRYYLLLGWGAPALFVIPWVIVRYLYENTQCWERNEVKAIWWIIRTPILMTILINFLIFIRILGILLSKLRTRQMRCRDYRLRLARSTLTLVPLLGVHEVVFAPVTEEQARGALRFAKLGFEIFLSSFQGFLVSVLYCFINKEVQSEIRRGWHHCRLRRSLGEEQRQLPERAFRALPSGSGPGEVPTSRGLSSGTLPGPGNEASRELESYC

rat GIPR = target: T4, rat GIPR (Rattus norvegicus, UniProt P43219); experiment: HitHunter cAMP assay in transiently transfected COS-7 cells, rat GIPR; assay type: cell-based; conditions: COS-7 cells expressing rat GIPR
T4 construct: expressed in transfected cells; host or cells: COS-7
T4 sequence (P43219 19-455): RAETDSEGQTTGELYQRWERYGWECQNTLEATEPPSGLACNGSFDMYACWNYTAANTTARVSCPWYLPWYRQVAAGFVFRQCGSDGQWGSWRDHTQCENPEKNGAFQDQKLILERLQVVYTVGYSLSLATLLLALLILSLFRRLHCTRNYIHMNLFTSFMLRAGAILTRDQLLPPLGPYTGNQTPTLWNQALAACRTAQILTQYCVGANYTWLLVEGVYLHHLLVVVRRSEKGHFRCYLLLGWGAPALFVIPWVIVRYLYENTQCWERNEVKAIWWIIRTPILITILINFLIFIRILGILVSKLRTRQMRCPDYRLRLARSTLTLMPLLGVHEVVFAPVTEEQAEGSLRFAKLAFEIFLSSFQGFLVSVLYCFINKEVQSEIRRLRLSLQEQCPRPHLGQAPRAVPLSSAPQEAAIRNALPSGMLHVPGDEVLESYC
Description: as §1

rat GLP-2R = target: T5, rat GLP-2R (Rattus norvegicus, UniProt Q9Z0W0); experiment: HitHunter cAMP assay in transiently transfected COS-7 cells, rat GLP-2R; assay type: cell-based; conditions: COS-7 cells expressing rat GLP-2R
T5 construct: expressed in transfected cells; host or cells: COS-7
T5 sequence (Q9Z0W0 1-550): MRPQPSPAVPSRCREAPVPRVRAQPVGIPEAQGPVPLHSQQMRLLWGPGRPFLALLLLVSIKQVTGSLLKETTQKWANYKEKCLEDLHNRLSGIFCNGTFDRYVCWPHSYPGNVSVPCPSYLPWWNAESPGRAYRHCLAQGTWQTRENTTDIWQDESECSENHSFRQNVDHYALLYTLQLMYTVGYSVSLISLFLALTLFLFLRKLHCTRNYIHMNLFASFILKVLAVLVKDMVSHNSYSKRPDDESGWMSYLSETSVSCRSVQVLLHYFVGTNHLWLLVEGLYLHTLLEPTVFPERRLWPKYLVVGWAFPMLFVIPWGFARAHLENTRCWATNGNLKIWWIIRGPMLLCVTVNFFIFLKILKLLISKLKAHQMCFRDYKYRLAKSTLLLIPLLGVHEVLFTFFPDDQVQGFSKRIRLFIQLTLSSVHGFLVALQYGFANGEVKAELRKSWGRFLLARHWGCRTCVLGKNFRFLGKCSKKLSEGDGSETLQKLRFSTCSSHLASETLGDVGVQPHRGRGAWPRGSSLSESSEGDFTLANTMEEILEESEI
Description: as §1

human GIPR [1] = target: T6, human GIPR (Homo sapiens, UniProt P48546); assay type: cell-based; parameters: host or cells: COS-7; conditions: Table 2; for EC50 / PEC50 GIPR: cAMP, COS-7 cells expressing human GIPR
T6 sequence (P48546 22-466): T3 sequence (P48546 22-466)
Description: as §1

human GIPR [2] = target: T6, human GIPR; assay type: cell-based; parameters: host or cells: HEK293; conditions: beta-arrestin 2 recruitment to human GIPR, HEK293; NA = no activity
[3] = PK study in rats, half-life after SC or IV administration; assay type: in vivo, rat; conditions: Sprague Dawley rats, 100 nmol/kg SC, plasma LC-MS
Description: Sprague Dawley male or female rats, weight 200-300 g, n=3, were used for PK studies. Compounds were dissolved in 80% DMSO and further diluted/or directly dissolved in 50 mM phosphate buffer, pH 7.5+0.1% Haemaccel or casein. Dose given was 100 nmol/kg for all SC administrations and 20 nmol/kg or 100 nmol/kg for IV administrations. Blood samples were taken in the timeframe 0-72 H after compound administration. Plasma was obtained and stored at −20° C. until evaluation by LC-MS or LC-MS/MS.

Row | Substance | EC50 (human GLP-2R) [nM] | logEC50 GLP-2R (human GLP-2R) | logEC50 GLP-1R (human GLP-1R) | pEC50 ± SD (human SNAP-GIPR) | rGIPR pEC50 (rat GIPR) | rGLP-2R pEC50 (rat GLP-2R) | EC50 (human GIPR [1]) [nM] | PEC50 GIPR (human GIPR [1]) | pEC50 ± SD (human GIPR [2]) | EC50 (human GLP-1R) [nM] | T1/2 (h) SC administration [3] [h] | Efficacy GIPR (human GIPR [1]; Emax normalized to highest concentration of endogenous ligand)
1 | H-Aib-DG-K(γGlu-C16 diacid)-FISDYST-Aib-LDNLAARDFINWLIQTKITK-OH [Compound no. 25] | 1.1 | 9.0 | no activation | 7.2 ± 0.1 | 8.0 | 8.3 | 0.106 | 10.0 | 8.9 ± 0.6 | – | – | –
2 | H-Aib-DGTFISDYS-K(γGlu-C16)-Aib-LDNLAARDFINWLIQTKITK-OH [Compound no. 35] | 0.9 | 9.1 | 10.0 | – | 8.3 | 8.5 | 0.141 | 9.9 | 8.5 ± 0.3 | 0.11 | – | –
3 | (C16-diacid)H-Aib-DGTFISDYST-Aib-LDNLAARDFINWLIQTKITKNDWKHNITQ-OH [Compound no. 40] | 1.1 | 9.0 | no activation | – | – | – | 1 | 9.0 | – | – | 5.24 | –
4 | H-Aib-DG-K(γGlu-C10)-FISDYST-Aib-LDNLAARDFINWLIQTKITK-OH [Compound no. 24] | 3.5 | 8.5 | no activation | 7.7 ± 0.1 | 8.6 | 8.3 | – | – | 9.1 ± 0.6 | – | – | –
5 | H-Aib-DGTFISDY-K(γGlu-C16)-T-Aib-LDALAARDFIEWLIQTKITK-OH [Compound no. 33] | 1.4 | 8.9 | no activation | 7.0 ± 0.2 | 8.6 | 8.5 | 0.355 | 9.5 | 8.4 ± 0.9 | – | – | –
6 | Ac-H-Aib-DGTFISDYS-K(γGlu-C16)-Aib-LDNLAARDFINWLIQTKITK-OH [Compound no. 36] | 4.5 | 8.4 | 11.0 | 6.7 ± 0.1 | – | – | 1 | 9.0 | – | 0.01 | – | –
7 | H-Aib-DGTFISDY-K(γGlu-C16)-TAib-LDNLAARDFINWLIQTKITKNDWKHNITQ-OH [Compound no. 37] | 0.7 | 9.1 | no activation | 6.4 ± 0.3 | 8.8 | 8.9 | 0.302 | 9.5 | 8.0 ± 4.3 | – | – | 95
